Measurements reported in paper PMC5639367, “Structure‐Guided Design of Peptides as Tools to Probe the Protein–Protein Interaction between Cullin‐2 and Elongin BC Substrate Adaptor in Cullin RING E3 Ubiquitin Ligases” (Chemmedchem, 2017).
Where two headings read alike, the source gives them in different places.

Chains of the proteins cited; added tags and fusions are not shown. Residues count along the entry.
UniProt P40337, 54-213 partner limits assumed: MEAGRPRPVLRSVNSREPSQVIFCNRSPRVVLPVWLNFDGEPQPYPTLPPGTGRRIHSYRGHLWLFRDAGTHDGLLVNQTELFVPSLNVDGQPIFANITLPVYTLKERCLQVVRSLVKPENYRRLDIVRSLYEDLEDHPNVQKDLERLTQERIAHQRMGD
UniProt Q15370, 1-104 partner limits assumed: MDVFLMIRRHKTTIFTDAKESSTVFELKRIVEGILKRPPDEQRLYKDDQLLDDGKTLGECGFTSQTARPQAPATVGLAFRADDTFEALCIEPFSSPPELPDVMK

Key:
VBC [1] = target: T1, VBC (Homo sapiens, UniProt P40337+Q15369+Q15370); details: read-out: K d between VBC and Cul2; cited from earlier work
T1 construct: made in house; host or cells: E. coli BL21(DE3)
Description: Our work focused on probing a particular protein–protein interaction (PPI) in the CRL2^VHL ligase. […] We were interested in an epitope of the PPI between Cul2 and the receptor‐adaptor trimeric subunit composed by pVHL, EloB and EloC (VBC). This PPI has been described as comprising three main p ...

VBC [2] = target: T1, VBC; experiment: Biolayer interferometry (BLI) binding of peptides to immobilised VBC; details: Figure 2A, N-terminal Cul2 peptides and alanine scan of the 8-mer, biotinylated VBC on Super Streptavidin biosensor, peptides 27 µM to 7 mM, 20 mM HEPES pH 7.6, 100 mM NaCl, 1 mM DTT, 0.02% Tween-20, 25 °C, 1:1 model
Method: Biolayer interferometry: BLI experiments were performed in an Octet RED384 (FòrteBio). Biotinylated VBC (25 μg mL^−1) was immobilized on Super Streptavidin‐coated biosensor (FòrteBio). The experiments were conducted at 25 °C, in 20 mM HEPES pH 7.6, 100 mM NaCl, 1 mM DTT and 0.02 % (v/v) Tween‐20 buffer. The response of the reference tips was subtracted from the signal to account for unspecific binding. The data points were fitted using a 1:1 model. […]
peptides. Biotinylated VBC was immobilised on the tips and the peptides were tested in a concentration range from 27 µM to 7 mM. The different colours represent the different concentrations and corresponding responses. The assay was performed […]
Figure S2 – Biolayer interferomery experiments with the alanine scan peptides.
Biotinylated VBC was immobilised on the tips and the peptides were tested in a concentration range from 27 µM to 7 mM. The different colours represent the different concentrations and corresponding responses. The assay was performed in […]
leucine replacement versus VBC tested on a concentration-dependent assay. […]

Kd (VBC [2]) [µM] | Molecule | Kd (VBC [1]) [µM]
 | Cul2: Cullin‐2 scaffold protein of the CRL2^VHL ligase, native partner of VBC | 0.042
4000 ± 300 | CSCC[C@H](N)C(=O)N[C@@H](CO)C(=O)N[C@@H](CC(C)C)C(=O)N[C@@H](CCCCN)C(=O)N1CCC[C@H]1C(=O)N[C@@H](CCCNC(=N)N)C(=O)N[C@H](C(=O)N[C@H](C(=O)N[C@@H](CC(=O)O)C(=O)N[C@@H](Cc1ccccc1)C(N)=O)C(C)C)C(C)C | 
